Measurements: patent US20230213525A1, “DETECTING MICROBIAL INFECTION IN WOUNDS” (QUALIZYME DIAGNOSTICS GMBH & CO KG, priority 2016, published 2023)

Columns and labels:
[1] = target: T1, Elastase (Homo sapiens, UniProt P08246); assay: Elastase based test, liquid system, sputum; assay type: biochemical; conditions: infected sputum samples A, B, C; 2 µL, 1.0 mM substrate, 10 minutes
T1 sequence (P08246 30-267): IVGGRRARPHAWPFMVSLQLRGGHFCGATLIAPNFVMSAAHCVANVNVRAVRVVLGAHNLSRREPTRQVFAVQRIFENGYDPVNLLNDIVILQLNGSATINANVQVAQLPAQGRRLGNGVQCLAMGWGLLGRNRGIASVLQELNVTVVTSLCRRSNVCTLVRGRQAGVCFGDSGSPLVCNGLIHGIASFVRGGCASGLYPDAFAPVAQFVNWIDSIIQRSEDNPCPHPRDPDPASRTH
Experimental: This mixture is incubated at room temperature for 5 minutes.

[2] = target: T1, Elastase; assay: Elastase based test, cellulose paper based system, sputum; conditions: Whatman filter paper, 10 minutes

N-methoxysuccinyl-ala-ala-pro-val-p-nitroanilide
Test response [1]: yellow
Test response ([2]; infected sputum samples A, B): yellow
Test response ([2]; non infected sputum samples C, D): No colour change
